From article PMC3642088, “Phosphorylation of CDK9 at Ser175 Enhances HIV Transcription and Is a Marker of Activated P-TEFb in CD4^+ T Lymphocytes” (PLoS Pathogens, 2013)

Key:
Settings in all cases: partners not purified
FLAG-CDK9 S175A [1] = target: T1, FLAG-CDK9 S175A (human, S175A); assay: co-IP; anti-FLAG IP of FLAG-CDK9 wildtype or mutants from latently infected Jurkat T-cells induced for 16 hr with TNF-α to express Tat, Western blot for BRD4, Tat and CycT1; levels normalised to total CDK9, three experiments
T1 construct: also called S175A CDK9; Ser175Ala

FLAG-CDK9 S175D [2] = target: T2, FLAG-CDK9 S175D (human, S175D); assay: as above
T2 construct: also called S175D CDK9; Ser175Asp

FLAG-CDK9 T186A = target: T3, FLAG-CDK9 T186A (human, T186A); assay: as above
T3 construct: also called T186A CDK9

FLAG-CDK9 T186D = target: T4, FLAG-CDK9 T186D (human, T186D); assay: as above
T4 construct: also called T186D CDK9

FLAG-CDK9 S175A [3] = target: T1, FLAG-CDK9 S175A; assay: co-IP; anti-FLAG M2 agarose IP of FLAG-CDK9 wildtype or mutants from whole cell extracts (lysis buffer A) of Jurkat 2D10 cells, FLAG peptide elution, Western blot; densitometry normalised to total immunoprecipitated CDK9, five experiments
FLAG-CDK9 S175D [4] = target: T2, FLAG-CDK9 S175D; assay: as above

percent of wildtype binding (FLAG-CDK9 S175A [1]): 98.9%
percent of wildtype binding (FLAG-CDK9 S175D [2]): 78.9%
percent of wildtype binding (FLAG-CDK9 T186A): 8%
percent of wildtype binding (FLAG-CDK9 T186D): 49.4%
percent co-immunoprecipitated against wildtype CDK9 (FLAG-CDK9 S175A [3]): > 90%
percent co-immunoprecipitated against wildtype CDK9 (FLAG-CDK9 S175D [4]): 77.8%
B1: Cyclin T1 (natural protein, human (endogenous in Jurkat), UniProt O60563 1-726, looked up)
chain: MEGERKNNNKRWYFTREQLENSPSRRFGVDPDKELSYRQQAANLLQDMGQRLNVSQLTINTAIVYMHRFYMIQSFTQFPGNSVAPAALFLAAKVEEQPKKLEHVIKVAHTCLHPQESLPDTRSEAYLQQVQDLVILESIILQTLGFELTIDHPHTHVVKCTQLVRASKDLAQTSYFMATNSLHLTTFSLQYTPPVVACVCIHLACKWSNWEIPVSTDGKHWWEYVDATVTLELLDELTHEFLQILEKTPNRLKRIWNWRACEAAKKTKADDRGTDEKTSEQTILNMISQSSSDTTIAGLMSMSTSTTSAVPSLPVSEESSSNLTSVEMLPGKRWLSSQPSFKLEPTQGHRTSENLALTGVDHSLPQDGSNAFISQKQNSKSVPSAKVSLKEYRAKHAEELAAQKRQLENMEANVKSQYAYAAQNLLSHHDSHSSVILKMPIEGSENPERPFLEKADKTALKMRIPVAGGDKAASSKPEEIKMRIKVHAAADKHNSVEDSVTKSREHKEKHKTHPSNHHHHHNHHSHKHSHSQLPVGTGNKRPGDPKHSSQTSNLAHKTYSLSSSFSSSSSTRKRGPSEETGGAVFDHPAKIAKSTKSSSLNFSFPSLPTMGQMPGHSSDTSGLSFSQPSCKTRVPHSKLDKGPTGANGHNTTQTIDYQDTVNMLHSLLSAQGVQPTQPTAFEFVRPYSDYLNPRSGGISSRSGNTDKPRPPPLPSEPPPPLPPLPK
notes: also called CycT1; hCycT1
